Reference: patent publication US12209090B2, “3,6-disubstituted-2-pyridinaldoxime scaffolds” (dated 2025)

Protein sequences, listed by entry. Tags and fused reporters are not part of them. Lines headed by an entry give the natural chain unless they say otherwise; changes in a name come on top.
UniProt P22303: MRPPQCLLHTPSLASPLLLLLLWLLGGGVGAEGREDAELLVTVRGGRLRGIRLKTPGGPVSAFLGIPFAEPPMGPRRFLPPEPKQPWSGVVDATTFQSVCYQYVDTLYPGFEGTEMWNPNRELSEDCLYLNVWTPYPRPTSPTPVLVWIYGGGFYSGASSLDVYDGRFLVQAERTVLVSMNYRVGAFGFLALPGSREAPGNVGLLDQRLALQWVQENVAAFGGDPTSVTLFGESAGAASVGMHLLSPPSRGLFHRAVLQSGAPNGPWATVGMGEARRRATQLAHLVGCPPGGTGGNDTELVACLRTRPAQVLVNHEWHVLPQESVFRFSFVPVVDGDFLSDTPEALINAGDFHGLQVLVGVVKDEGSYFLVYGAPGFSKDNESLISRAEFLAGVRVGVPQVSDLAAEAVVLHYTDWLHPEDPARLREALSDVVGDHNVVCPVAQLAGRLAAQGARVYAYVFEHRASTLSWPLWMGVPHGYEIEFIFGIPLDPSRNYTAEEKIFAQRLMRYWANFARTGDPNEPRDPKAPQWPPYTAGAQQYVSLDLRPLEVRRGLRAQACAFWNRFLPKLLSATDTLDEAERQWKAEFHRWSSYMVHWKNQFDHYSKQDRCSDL

Columns and labels:
hAChE inhibited by tabun = hAChE inhibited by tabun (Homo sapiens, UniProt P22303); test: Reactivation of tabun-inhibited hAChE by oximes
[1] = target: hAChE inhibited by O-ethyl S-[2-(diisopropylamino)ethyl] methylphosphonothioate (VX) (Homo sapiens, UniProt P22303); test: Reactivation of VX-inhibited hAChE by oximes
[2] = target: hAChE inhibited by paraoxon (Homo sapiens, UniProt P22303); test: Reactivation of paraoxon-inhibited hAChE by oximes
hAChE inhibited by sarin = hAChE inhibited by sarin (Homo sapiens, UniProt P22303); test: Reactivation of sarin-inhibited hAChE by oximes

Question: “(2S,3S,4R,5R)-5-(6-amino-9H-purin-9-yl)-3,4-dihydroxy-N-(4-(6-(hydroxyimino) methyl)pyridin-2-yl)but-3-yn-1-yl)tetrahydrofuran-2-carboxamide” was tested. Which “kr2 (second-order reactivation rate constant, kr/KD)” value (from here on “kr2”) (hAChE inhibited by tabun; OP = Tabun) did it give?
Answer: 633 M⁻¹ s⁻¹

Question: And the “kr (maximal reactivation rate constant)” value (hAChE inhibited by tabun; OP = Tabun, 37° C., phosphate buffer pH 7.4)?
Answer: 1.2 ± 0.07 min⁻¹

Question: And the “reactivation kinetics (kr) as compared to references 2-PAM and HI6” value (hAChE inhibited by tabun; Tabun, in words)?
Answer: higher reactivation kinetics

Question: And the “kr2” value ([1]; OP = VX)?
Answer: 100 M⁻¹ s⁻¹

Question: What about the “kr (maximal reactivation rate constant)” value ([1]; OP = VX, 37° C., phosphate buffer pH 7.4) of the same substance?
Answer: 0.58 ± 0.07 min⁻¹

Question: And the “reactivation kinetics (kr) as compared to references 2-PAM and HI6” value ([1]; VX, in words)?
Answer: higher reactivation kinetics

Question: What about the “kr2” value ([2]; OP = Paraoxon) of the same substance?
Answer: 107 M⁻¹ s⁻¹

Question: What about the “kr (maximal reactivation rate constant)” value ([2]; OP = Paraoxon, 37° C., phosphate buffer pH 7.4) of the same substance?
Answer: 0.36 ± 0.16 min⁻¹

Question: What about the “reactivation kinetics (kr) as compared to references 2-PAM and HI6” value ([2]; Paraoxon, in words) of the same substance?
Answer: higher reactivation kinetics

Question: What about the “kr2” value (hAChE inhibited by sarin; OP = Sarin) of the same substance?
Answer: 182 M⁻¹ s⁻¹

Question: What about the “kr (maximal reactivation rate constant)” value (hAChE inhibited by sarin; OP = Sarin, 37° C., phosphate buffer pH 7.4) of the same substance?
Answer: 1.2 ± 0.15 min⁻¹

Question: And the “reactivation kinetics (kr) as compared to references 2-PAM and HI6” value (hAChE inhibited by sarin; Sarin, in words)?
Answer: higher reactivation kinetics
